Data on one molecule can be found in ChEMBL document CHEMBL1221364 (Bioorg Med Chem, 2010).

Amino acid sequences for entries named in this document (tags omitted).
UniProt P21728, whole entry: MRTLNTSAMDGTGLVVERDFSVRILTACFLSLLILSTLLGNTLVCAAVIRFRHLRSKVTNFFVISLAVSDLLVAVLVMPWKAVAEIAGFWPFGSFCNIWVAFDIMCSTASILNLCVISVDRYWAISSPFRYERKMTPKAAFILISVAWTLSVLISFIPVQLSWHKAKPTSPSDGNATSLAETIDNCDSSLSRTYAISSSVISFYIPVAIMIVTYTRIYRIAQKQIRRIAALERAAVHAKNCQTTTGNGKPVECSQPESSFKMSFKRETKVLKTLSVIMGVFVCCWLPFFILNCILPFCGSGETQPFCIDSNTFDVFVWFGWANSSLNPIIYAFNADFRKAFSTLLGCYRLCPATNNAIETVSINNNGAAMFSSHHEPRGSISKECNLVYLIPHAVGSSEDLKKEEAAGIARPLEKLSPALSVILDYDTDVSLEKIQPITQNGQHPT

The structures appear in SMILES notation.

What is called EC50 is the concentration giving half of the maximal effect.

The assay deals with D(1A) dopamine receptor (Homo sapiens, UniProt P21728). The assay can be described thus: Agonist activity at human D1 receptor assessed as cAMP accumulation. It is filed as functional. For orientation: Cyclic AMP is a second messenger, typically raised through Gs and lowered through Gi signalling.

Regarding `Oc1cc2c(cc1O)[C@H]1c3ccccc3CN[C@H]1CO2` [DOXANTHINE], the concentration for a half-maximal effect (EC50) was found to be 4.3 nM.
